Values quoted from earlier work in PMC3809117 (AIDS (London, England), 2009).

Tested on: HDACs
Conditions: HDAC isoforms inhibited; cited from earlier work

For `CCCC(CCC)C(=O)O` [VPA, valproic acid], the Selectivity is given as “Nonselective”.
